Biological target: HDAC7 (Homo sapiens, UniProt Q8WUI4)
Test: HDAC biochemical activity measurement (fluorescent substrate deacetylation)
Conditions: HDAC7 enzyme, 37°, 30 minutes

Protein sequences, listed by entry. Tags and fused reporters are not part of them.
UniProt Q8WUI4, whole entry: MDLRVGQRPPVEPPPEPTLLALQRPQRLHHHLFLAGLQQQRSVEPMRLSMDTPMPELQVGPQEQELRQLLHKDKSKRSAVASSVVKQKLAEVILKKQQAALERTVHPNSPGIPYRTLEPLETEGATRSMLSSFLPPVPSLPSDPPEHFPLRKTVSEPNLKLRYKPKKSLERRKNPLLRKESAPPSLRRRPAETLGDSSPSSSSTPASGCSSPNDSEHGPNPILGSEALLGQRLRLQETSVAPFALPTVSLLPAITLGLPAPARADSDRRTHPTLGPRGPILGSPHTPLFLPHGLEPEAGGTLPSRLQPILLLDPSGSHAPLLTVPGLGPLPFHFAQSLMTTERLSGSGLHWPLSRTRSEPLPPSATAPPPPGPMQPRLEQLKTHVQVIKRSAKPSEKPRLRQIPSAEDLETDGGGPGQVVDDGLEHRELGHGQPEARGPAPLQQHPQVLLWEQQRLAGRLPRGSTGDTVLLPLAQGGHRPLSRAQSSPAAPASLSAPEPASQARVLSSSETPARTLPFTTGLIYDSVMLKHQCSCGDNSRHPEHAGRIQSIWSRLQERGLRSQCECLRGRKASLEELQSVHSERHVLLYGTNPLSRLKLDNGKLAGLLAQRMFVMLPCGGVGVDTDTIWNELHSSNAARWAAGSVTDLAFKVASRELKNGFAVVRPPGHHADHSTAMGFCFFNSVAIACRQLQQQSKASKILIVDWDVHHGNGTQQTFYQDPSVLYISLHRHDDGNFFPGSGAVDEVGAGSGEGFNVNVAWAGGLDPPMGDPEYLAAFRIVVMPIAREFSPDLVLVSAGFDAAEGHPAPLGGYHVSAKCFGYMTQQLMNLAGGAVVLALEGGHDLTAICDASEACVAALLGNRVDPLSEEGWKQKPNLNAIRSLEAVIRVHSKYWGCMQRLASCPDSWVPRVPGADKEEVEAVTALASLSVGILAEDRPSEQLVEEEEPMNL

Structure (SMILES) | IC50 (μM) HDAC7
C/C=C1\NC(=O)c2ccc(SC)c(n2)CNC(=O)C[C@@H](/C=C/CCSC(C)=O)OC(=O)[C@H](CC)NC1=O | no activity
C/C=C1\NC(=O)c2ccc(SC)c(n2)CNC(=O)C[C@@H](/C=C/CCSC(=O)CCCCCCC)OC(=O)[C@H](CC)NC1=O | no activity
C/C=C1\NC(=O)c2cccc(n2)CNC(=O)C[C@@H](/C=C/CCSC(=O)CCCCCCC)OC(=O)[C@H](CCSC)NC1=O | no activity
C/C=C1\NC(=O)c2cccc(n2)CNC(=O)C[C@@H](/C=C/CCSC(=O)CCCCC)OC(=O)[C@H](C(C)C)NC1=O | no activity
C/C=C1\NC(=O)c2nc(ccc2SC)CNC(=O)C[C@@H](/C=C/CCSC(=O)CCCCCCC)OC(=O)[C@H](C(C)C)NC1=O | no activity
C/C=C1\NC(=O)c2cc(SC)cc(n2)CNC(=O)C[C@@H](/C=C/CCSC(C)=O)OC(=O)[C@H](CCCCN)NC1=O | no activity
C/C=C1\NC(=O)c2cc(F)cc(n2)CNC(=O)C[C@@H](/C=C/CCSC(C)=O)OC(=O)[C@H](C(C)C)NC1=O [Compound 49] | no activity
C/C=C1\NC(=O)c2cc(SC)cc(n2)CNC(=O)C[C@@H](/C=C/CCSC(C)=O)OC(=O)[C@H](CC)NC1=O | no activity
C/C=C1\NC(=O)c2cccc(n2)CNC(=O)C[C@@H](/C=C/CCSC=O)OC(=O)[C@H](C(C)C)NC1=O | no activity
C/C=C1\NC(=O)c2nc(ccc2SC)CNC(=O)C[C@@H](/C=C/CCS)OC(=O)[C@H](C)NC1=O | no activity
C/C=C1\NC(=O)c2nc(ccc2F)CCNC(=O)C[C@@H](/C=C/CCSC(C)=O)OC(=O)[C@H](C(C)C)NC1=O | no activity
C/C=C1\NC(=O)c2nc(ccc2SCCC)CNC(=O)C[C@@H](/C=C/CCSC(=O)CCCCCCC)OC(=O)[C@H](CC)NC1=O | no activity
C/C=C1\NC(=O)c2cccc(n2)CNC(=O)C[C@@H](/C=C/CCSC(=O)CCCCCCC)OC(=O)[C@H](CSCC)NC1=O | no activity
C/C=C1\NC(=O)c2cccc(n2)CNC(=O)C[C@@H](/C=C/CCSC(C)=O)OC(=O)[C@H](CC)NC1=O | no activity
C/C=C1\NC(=O)c2cc(F)cc(n2)CCNC(=O)C[C@@H](/C=C/CCSC(C)=O)OC(=O)[C@H](C(C)C)NC1=O | no activity
C/C=C1\NC(=O)c2cc(SCCC)cc(n2)CNC(=O)C[C@@H](/C=C/CCSC(=O)CCCCCCC)OC(=O)[C@H](CC)NC1=O | no activity
C/C=C1\NC(=O)c2cccc(n2)CCNC(=O)C[C@@H](/C=C/CCS)OC(=O)[C@H](C(C)C)NC1=O | no activity
C=C1NC(=O)c2cc(SC)cc(n2)CNC(=O)C[C@@H](/C=C/CCSC(C)=O)OC(=O)[C@H](C(C)C)NC1=O | no activity
C/C=C1\NC(=O)c2nc(ccc2SC)CNC(=O)C[C@@H](/C=C/CCSC=O)OC(=O)[C@H](C(C)C)NC1=O | no activity
C/C=C1\NC(=O)c2nc(ccc2SC)CNC(=O)C[C@@H](/C=C/CCSC(=O)CCCCC)OC(=O)[C@H](C(C)C)NC1=O | no activity
C/C=C1\NC(=O)c2ccc(SC)c(n2)CNC(=O)C[C@@H](/C=C/CCSC(=O)CCCCCCC)OC(=O)[C@H](Cc2ccccc2)NC1=O | no activity
C/C=C1\NC(=O)c2cccc(n2)CNC(=O)C[C@@H](/C=C/CCS)OC(=O)[C@@H](C)NC1=O | no activity
C/C=C1\NC(=O)c2cccc(n2)CNC(=O)C[C@@H](/C=C/CCSC(=O)CCCCCCC)OC(=O)[C@H](CC(C)C)NC1=O | no activity
C/C=C1\NC(=O)c2nc(ccc2SC)CNC(=O)C[C@@H](/C=C/CCSC(=O)CCCCCCC)OC(=O)[C@H](CC)NC1=O | no activity
C/C=C1\NC(=O)c2cc(SC)cc(n2)CNC(=O)C[C@@H](/C=C/CCSC(=O)CCCCCC)OC(=O)[C@H](C(C)C)NC1=O | no activity
C/C=C1\NC(=O)c2cc(SC)cc(n2)CNC(=O)C[C@@H](/C=C/CCSC=O)OC(=O)[C@H](C(C)C)NC1=O | no activity

Source: patent US20160280736A1, “CYCLIC PEPTIDE COMPOUND, AND PREPARATION METHOD, PHARMACEUTICAL COMPOSITION AND USE THEREOF” (HANGZHOU GUANYU BIO-MEDICAL CO., LTD., priority 2013, published 2016)
